Assay results as given in patent US20090087431A1, “METHODS OF TREATING BONE DISORDERS WITH MODULATORS OF AXL” (Wyeth, priority 2007, published 2009).

Assays:
C3H10T½ cells = experiment: BMP2 effect on Axl gene expression, quantitative RT-PCR; format: cell-based, murine; settings: 100 ng/ml or 320 ng/ml rhBMP2, within 24 hours of treatment
Description: (§1) The effect of the osteoinductive factor BMP2 on Axl gene expression was assayed in two murine mesenchymal cell lines, C3H10T½pluripotent mesenchymal cells and Clone 14 murine limb bud progenitor cells. Briefly, C3H10T½ or Clone 14 cells were incubated in the presence of either 100 ng/ml or 320 ng/ml rhBMP2. Samples were obtained at 2, 6, and 24 hours post addition of rhBMP2 and the amount of Axl measured using quantitative RT-PCR. […] C14: Clone 14 cells; 10T½: C3H10T½ cells.

Clone 14 cells = experiment: as above; format: cell-based, murine; settings: 100 ng/ml or 320 ng/ml rhBMP2, within 24 hours of treatment
Description: as §1

B1: rhBMP2: recombinant human bone morphogenetic protein 2, osteoinductive factor (protein, UniProt P12643 283-396, looked up)
Bone morphogenetic protein 2: QAKHKQRKRLKSSCKRHPLYVDFSDVGWNDWIVAPPGYHAFYCHGECPFPLADHLNSTNHAIVQTLVNSVNSKIPKACCVPTELSAISMLYLDENEKVVLKNYQDMVVEGCGCR
For B1, the Axl expression downregulated (C3H10T½ cells) was “approximately two-fold” and the Axl expression downregulated (Clone 14 cells) was “approximately two-fold”.
